Values of other authors in US11020395B2, “Cycloalkyl substituted triazole compounds as agonists of the APJ receptor” (AMGEN INC., priority 2016, dated 2021).

Sequences of proteins named here, by UniProt entry; tags and fusion partners are left off. A change or cut given only in a name is not applied to a line headed by its entry.
UniProt P35414: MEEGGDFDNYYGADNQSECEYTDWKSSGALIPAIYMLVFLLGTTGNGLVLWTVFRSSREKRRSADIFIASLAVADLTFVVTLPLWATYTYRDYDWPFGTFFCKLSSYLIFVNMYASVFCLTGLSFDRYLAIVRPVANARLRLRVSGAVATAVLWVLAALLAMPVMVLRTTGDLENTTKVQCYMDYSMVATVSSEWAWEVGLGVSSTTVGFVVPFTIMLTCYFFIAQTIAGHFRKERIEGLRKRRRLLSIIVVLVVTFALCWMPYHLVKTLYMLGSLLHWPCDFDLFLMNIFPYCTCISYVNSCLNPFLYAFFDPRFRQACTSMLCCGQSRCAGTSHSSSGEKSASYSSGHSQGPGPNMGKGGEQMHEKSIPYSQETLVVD

Target: APJ receptor (Homo sapiens (Human), UniProt P35414)
Settings: relative to apelin-36; cited from earlier work

Apelin-13
fold higher in vitro affinity to the APJ receptor than apelin-36: ~3.5 fold
